Among the data in PubChem BioAssay AID1508609 (The Scripps Research Institute Molecular Screening Center, 2020) are activation values, retold here.

Protein sequences, listed by entry. Tags and fused reporters are not part of them.
UniProt Q8TDV0, whole entry: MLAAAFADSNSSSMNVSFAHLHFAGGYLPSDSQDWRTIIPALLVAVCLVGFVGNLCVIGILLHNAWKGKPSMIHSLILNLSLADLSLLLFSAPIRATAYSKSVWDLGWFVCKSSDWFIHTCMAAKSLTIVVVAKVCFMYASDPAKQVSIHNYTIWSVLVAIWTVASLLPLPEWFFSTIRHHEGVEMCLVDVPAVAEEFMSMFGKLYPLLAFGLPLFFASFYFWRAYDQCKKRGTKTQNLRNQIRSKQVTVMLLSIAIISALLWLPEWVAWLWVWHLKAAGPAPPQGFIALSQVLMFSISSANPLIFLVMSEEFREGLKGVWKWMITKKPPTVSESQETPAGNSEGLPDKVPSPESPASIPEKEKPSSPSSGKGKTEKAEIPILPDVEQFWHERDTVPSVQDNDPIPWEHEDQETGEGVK

This is a selection; strong and weak results do not stand in their true shares. The source made the active and inactive calls.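 Rule for the calls: active = mean percent activation across replicates above the confirmation screen cutoff of 4.91%; inactive = the rest.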

This experiment has as its target G-protein coupled receptor 151 (Homo sapiens) (UniProt Q8TDV0). Briefly: GPR151 agonism via beta-arrestin recruitment – cell-based, PathHunter beta-arrestin, luminescence, confirmation (AID 1508609). The note with it: GPR151 PathHunter beta-arrestin cells, 90 min, at 11.2 µM, active compounds read high, % of EA-reagent control over plate median.
`CP(=O)(O)Oc1cccc(Cl)c1Cl`: the activation was inactive: 0.45%.
For `CP(=O)(Nc1ccccn1)Oc1ccc(Cl)cc1` (configuration not stated) the value was inactive: 0.27%.
